The values below come from patent publication US12685726B2, “Sulfoximines as inhibitors of NaV1.8” (Gruenenthal GmbH, priority 2022, dated 2026).

By UniProt entry, the sequences of proteins in these tests, tags left out.
UniProt Q9Y5Y9, whole entry: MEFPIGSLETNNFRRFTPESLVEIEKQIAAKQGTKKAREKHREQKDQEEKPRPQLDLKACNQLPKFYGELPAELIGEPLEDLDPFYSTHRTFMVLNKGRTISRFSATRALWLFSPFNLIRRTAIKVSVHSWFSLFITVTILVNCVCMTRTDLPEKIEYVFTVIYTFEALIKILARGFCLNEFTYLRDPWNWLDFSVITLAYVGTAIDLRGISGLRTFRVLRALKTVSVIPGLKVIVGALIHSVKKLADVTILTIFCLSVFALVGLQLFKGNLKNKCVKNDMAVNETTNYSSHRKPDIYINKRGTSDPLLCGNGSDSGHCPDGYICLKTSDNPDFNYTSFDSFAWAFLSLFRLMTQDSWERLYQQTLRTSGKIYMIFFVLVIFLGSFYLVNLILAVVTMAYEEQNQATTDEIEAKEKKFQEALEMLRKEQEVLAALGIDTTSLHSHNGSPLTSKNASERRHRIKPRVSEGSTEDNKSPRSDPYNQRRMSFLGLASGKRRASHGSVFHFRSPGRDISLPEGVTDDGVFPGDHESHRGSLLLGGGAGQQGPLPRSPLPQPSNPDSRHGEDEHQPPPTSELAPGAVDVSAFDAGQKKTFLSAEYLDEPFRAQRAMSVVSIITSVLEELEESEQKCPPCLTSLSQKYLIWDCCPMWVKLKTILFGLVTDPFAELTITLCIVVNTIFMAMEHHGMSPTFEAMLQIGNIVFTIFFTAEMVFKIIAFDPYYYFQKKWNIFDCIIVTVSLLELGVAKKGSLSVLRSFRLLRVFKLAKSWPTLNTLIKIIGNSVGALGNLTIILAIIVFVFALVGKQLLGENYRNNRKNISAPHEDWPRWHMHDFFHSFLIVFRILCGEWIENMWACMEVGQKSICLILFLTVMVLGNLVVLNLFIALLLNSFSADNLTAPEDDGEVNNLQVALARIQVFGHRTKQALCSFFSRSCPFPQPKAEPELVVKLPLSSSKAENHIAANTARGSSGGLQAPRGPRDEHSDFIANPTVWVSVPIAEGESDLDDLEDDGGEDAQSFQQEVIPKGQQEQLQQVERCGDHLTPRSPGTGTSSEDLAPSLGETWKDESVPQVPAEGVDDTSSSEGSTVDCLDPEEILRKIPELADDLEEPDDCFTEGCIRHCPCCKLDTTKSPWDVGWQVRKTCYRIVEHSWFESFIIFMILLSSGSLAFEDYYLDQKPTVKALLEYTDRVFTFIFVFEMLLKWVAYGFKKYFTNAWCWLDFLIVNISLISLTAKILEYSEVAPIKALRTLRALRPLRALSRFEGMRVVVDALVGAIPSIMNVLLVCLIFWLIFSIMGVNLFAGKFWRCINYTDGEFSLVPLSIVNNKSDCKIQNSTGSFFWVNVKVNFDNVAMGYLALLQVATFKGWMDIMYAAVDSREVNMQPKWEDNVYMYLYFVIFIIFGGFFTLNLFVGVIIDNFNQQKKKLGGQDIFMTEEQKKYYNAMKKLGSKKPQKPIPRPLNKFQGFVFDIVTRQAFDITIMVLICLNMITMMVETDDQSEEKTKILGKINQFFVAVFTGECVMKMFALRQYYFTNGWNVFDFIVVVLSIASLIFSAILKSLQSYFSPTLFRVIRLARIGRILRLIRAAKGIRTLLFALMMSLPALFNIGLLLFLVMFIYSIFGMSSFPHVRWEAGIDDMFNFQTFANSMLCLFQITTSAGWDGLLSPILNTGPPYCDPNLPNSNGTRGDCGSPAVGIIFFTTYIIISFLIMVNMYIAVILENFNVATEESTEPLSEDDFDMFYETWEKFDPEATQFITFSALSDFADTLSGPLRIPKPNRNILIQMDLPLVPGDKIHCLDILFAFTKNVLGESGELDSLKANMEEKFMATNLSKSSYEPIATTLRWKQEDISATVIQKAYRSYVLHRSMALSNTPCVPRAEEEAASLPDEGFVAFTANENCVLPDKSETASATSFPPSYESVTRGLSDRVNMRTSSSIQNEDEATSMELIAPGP

The assay deals with human NaV 1.8 (Homo sapiens, UniProt Q9Y5Y9). Description: Automated whole-cell patch clamp (Qube384) voltage-clamp recordings of sodium currents in HEK-NaV1.8 cell line. Conditions: read-out: Potency category (human NaV 1.8 IC50). As to the method:
Electrophysiology: Voltage-Clamp Recordings
The following NaV1.8 recombinant cell line was used for recordings: HEK-NaV1.8 (NM_006514.1) with b3 (NM_018400.3).
Sodium currents were measured using the patch clamp technique in the whole-cell configuration using the Qube384 (Sophion A/S, Copenhagen, Denmark) automated voltage clamp platform. “Multi hole” plates were used for the cell line expressing NaV1.8 while “single hole” plates were used for the recombinant cell lines expressing the other subtypes. Appropriate filters (for minimum seal resistance and minimum current size) and series resistance compensation (for high quality sodium channel recordings) were applied. Data was collected at ambient room temperature or 19° C.
The recording extracellular solution contained (in mM): NaCl 145 mM, KCl 4 mM, CaCl2 2 mM, MgCl2 1 mM, HEPES 10 mM, Glucose 10 mM, pH 7.4 (NaOH). […] Currents were recorded at 25 kHz sampling frequency and filtered at 5 kHz. […]
Each parameter was recorded (P1, P2, P3, P40 from 10 Hz and P40 from 20 Hz) during a control period (lasting 5 minutes) when establishing the baseline and during compound period (lasting ~12 minutes) when test compound (or vehicle) was applied. […]
The adjusted inhibition was calculated as follows: […]
Percent inhibition was determined and IC50 values were calculated using a 4 parameter logistic model within XLFit Software (IDBS, Boston MA): F […]
Background: Patch clamp records ionic current or voltage across a cell membrane.

The IC50 is the point on the concentration scale where inhibition reaches its midpoint.

Bounds are passed on as bounds.

`CC1(Cn2nc(C3CC3)c(C(F)(F)F)c2C(=O)Nc2ccnc([S@](C)(=N)=O)c2)CCC(F)(F)C1` (stereo partly shown): the half-inhibitory concentration (IC50) was less than 100 nM.
